Laboratory results published in publication PMC9413219 (Journal of Agricultural and Food Chemistry, 2022).

Tested on: rumen inoculum from fistulated cows
Test: In vitro batch culture incubation of a Senecio PA mixture with rumen inoculum
Assay type: in vitro ADME
Details: incubation with rumen inoculum up to 20 h

Substance: retrorsine
- degradation rate in rumen incubation (half-life ranking): ranged in the middle
